# Antibody variant affinities, Ab-14 light chain, assay B

Data: MIT Lincoln Laboratory AlphaSeq set, Li et al. 2023, doi:10.1038/s41467-023-39022-2, as distributed in FLAb.

Target peptide (SARS-CoV-2 spike, HR2 region): PDVDLGDISGINAS

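Phage display of a naive human antibody library on the peptide gave the parent. These sequences belong to a second round, designed from the earlier measurements on random variants of the parent. Several design methods are mixed in this list. The scFvs were displayed on barcoded MATa yeast, the peptide on MATalpha yeast. Binding brings cells together so that they mate, and sequencing counts the barcode pairs among the diploids. The ratio of observed to expected reads was calibrated, replicate by replicate, on BCL2-family standards whose Kd was known from biolayer interferometry. Each pool was mated in six replicate cultures.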

The variants keep the heavy chain, the linker and the frameworks of Ab-14 (scFv order VH, three GGGGS repeats, VL).
VH: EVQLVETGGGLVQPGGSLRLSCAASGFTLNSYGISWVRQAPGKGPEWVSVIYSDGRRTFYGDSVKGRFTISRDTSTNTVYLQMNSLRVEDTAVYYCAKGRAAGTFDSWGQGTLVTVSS
VL: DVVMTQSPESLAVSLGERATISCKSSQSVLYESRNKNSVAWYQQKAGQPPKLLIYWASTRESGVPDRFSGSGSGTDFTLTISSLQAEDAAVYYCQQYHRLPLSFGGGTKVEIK

Each variant is given by its three light chain CDRs, as the data file delimits them; those of the parent are KSSQSVLYESRNKNSVA, WASTRES, QQYHRLPLS. Values are apparent Kd, the geometric mean of the replicates that gave a signal; lower means stronger binding. A pair that was not seen in any replicate is written "not detected"; this usually means weak binding, but a binder can also be missed. Background: pairings of all light chain designs with three empty control strains gave a value in 4% of cases (median 430 nM, 5th percentile 38 nM). Values in that range, when seen in few replicates, are hard to tell from nonspecific mating. The parent sequence was in this pool as ten entries: three were never detected, three once, and four in most replicates, with averages from 2.2 nM to 240 nM. Values of this round are not directly comparable with the first-round values of the same sequences. In the paper, a design with two or fewer of six values counts as a poor binder.

| CDR-L1 | CDR-L2 | CDR-L3 | Kd (apparent) | detected |
|---|---|---|---|---|
| KLSMITGHLQQSKNNVA | EMVTREN | QQYNRLPLA | 1.4 nM | 6 of 6 |
| TISQVMNTLTRHGNNVA | DLAEREA | QQYFRLPLS | 70 nM | 3 of 6 |
| KFSQSVLYESRTVNSVA | NASTRES | QQYHRLPLS | 580 pM | 6 of 6 |
| KLSQSVLFWGHAINSVA | EMETREY | QQYDRLPLS | 9.1 nM | 6 of 6 |
| KSSASYLYESRNTNSVA | EASTRES | QQYHRLPLS | 1.3 nM | 6 of 6 |
| KLSQSTHIESFNRNNVA | EMTTRES | QSYDRLPLS | 7.8 nM | 6 of 6 |
| KFSQSVAYESRNKNSVA | MASTRES | QQYHRLPLS | 4.6 nM | 6 of 6 |
| KLSQSELYESRNKNSVA | HASTRCS | QQYHRLPLS | 1.5 nM | 6 of 6 |
| RIQEQMQKPDNIGQNVA | ENQTVID | QQYAHLPLI | 90 nM | 4 of 6 |
| KSSQSWLYESRNKNSVA | DASTREQ | QQYHRLPLS | 230 pM | 6 of 6 |
| KLSQSELYESRVKNNVA | AASQRES | QQYHRLPLS | 4.1 nM | 6 of 6 |
| KVSQSGLYESRNKNSVA | NASTRES | QQYHRLPLS | 2.7 nM | 6 of 6 |
| KISQLVNFLGKNKNSVA | QMSTREQ | QQYDRLPLS | 3.7 nM | 6 of 6 |
| NLFGHDFESKQMGNAIA | DMTTVMA | QQYFMLPLH | 7.2 nM | 6 of 6 |
| KVSQSWLSESRNKNSVA | EASTRQS | QQYHRLPLS | 550 pM | 6 of 6 |
| KLGQSVAMTSRNKNNVA | DLNERER | QQYHRLPLS | 2.0 nM | 6 of 6 |
| KSSPSVLYEQRNKNSVA | EASTREA | QQYHRLPLS | 2.3 nM | 6 of 6 |
| KSEQIVLYESRNKNSVA | WASTRES | QQYHRLPLS | 190 nM | 2 of 6 |
| KLSQSVEQLERNKNSVA | HASQREV | QQYHRLPLS | 730 pM | 6 of 6 |
| HLGWATMLEETVRNSVA | NNSTRES | QQYDRLPLS | 21 nM | 6 of 6 |
| KLSWSNLYESRNCNSVA | NASTREV | QQYHRLPLS | 10 nM | 6 of 6 |
| KSSQSVLYESRDKQSVA | WANTRSS | QQYHRLPLS | 56 nM | 2 of 6 |
| HLSHMSGVESVKHNSVA | ENSTRAN | QQYDRLPLA | 230 nM | 6 of 6 |
| KQSQSVLYESRNKNSVA | DASTRES | QQYHRLPLM | 790 pM | 6 of 6 |
| QMTLSHGMWLNAAQSIA | DKSSVME | QQYAWLPLS | 210 nM | 5 of 6 |
| KLTMTYQHTSRNKNNIA | ERSTREE | QQYHHLPLS | 2.3 nM | 6 of 6 |
| KIDISELGESRNWNSVA | NASTREE | QQYHRLPLS | 1.3 nM | 6 of 6 |
| KLPQSVLYESRNKNSVA | QASTREQ | QQYHRLPLS | 590 pM | 6 of 6 |
| MVSQLMLWGHLAKNSIA | EAQMRLN | QQYDRLPLF | 250 nM | 1 of 6 |
| SLYENYQWGGQHTNAVA | DANQMMR | QHYNRLPLA | 1.8 nM | 5 of 6 |
| HITSNMFGTGGVASNVA | ETNTLMV | QQYSKLPLM | 1.9 nM | 6 of 6 |
| KFSQSVLYESRNKNSVA | DASTRCS | QQYHRLPLS | 340 pM | 6 of 6 |
| KMQNSNGYESRNKNSVA | QASTRMS | QQYHRLPLS | 740 pM | 6 of 6 |
| KSSQSMLYESRNKNSVA | RASTRAS | QQYHRLPLS | 660 nM | 6 of 6 |
| KLQQSVLYESRNKNSVA | HASQRES | QQYHRLPLS | 1.2 nM | 6 of 6 |
| KNSQSVLYESTNKNSVA | QASTRES | QQYFRNPLS | 130 nM | 3 of 6 |
| KLMWSMQYESRNQNSVA | SASYRES | QQYHRLPLS | 21 nM | 6 of 6 |

Continued, with the values leading:

| Kd (apparent) | detected | CDR-L1 | CDR-L2 | CDR-L3 |
|---|---|---|---|---|
| 3.8 nM | 6 of 6 | KSSMSYLYESRNKNSVA | AASTRES | QQYHRLPLS |
| 5.5 nM | 6 of 6 | HLQEQSFFGQKDYSSMA | NTECKYN | QQYARLPLM |
| 2.0 nM | 6 of 6 | KSSQSVAPESRNANSVA | DASTRES | QQYHRLPLS |
| 750 pM | 6 of 6 | KLPQSMLYESRNKNSVA | NASQRES | QQYHRLPLS |
| 560 pM | 6 of 6 | KLSQLVLYESRNKNSVA | NASTRES | QQYHRLPLS |
| 23 nM | 6 of 6 | KSSQGVLYESRNKNSIA | WATTRES | QQYHRLPLS |
| 1.2 nM | 6 of 6 | KLQQSDLYESRMKNSVA | NASTRES | QQYHRLPLS |
| not detected | 0 of 6 | TLSQMSGVEMVKHNNVA | ENSTREK | QQYDRLPLA |
| 2.8 nM | 6 of 6 | QLGAVQDMTSKNKNSIA | EQSTREN | QQYHRLPLS |
| not detected | 0 of 6 | KVSQSFLYESRNKNAVA | GASTRES | QQYHRLKLS |
| 1.5 nM | 6 of 6 | KLSQSWEYESRNKNSVA | NASTREQ | QQYHRLPLS |
| 54 nM | 6 of 6 | KSSQSMLDESRNCNSVA | WASTRES | QQYHRLPLS |
| 910 pM | 6 of 6 | NIRGRVNGKGTTTKNIA | DAEFRAG | QQYSRLPLS |
| 740 pM | 6 of 6 | KVYQSNLYESRNKNSVA | NASTRES | QQYHRLPLS |
| 3.0 nM | 6 of 6 | MISQSFLIGMKAKNSVA | QTNTREH | QQYDRLPLI |
| not detected | 0 of 6 | HCSQSCLYESRNKNSVA | WADTRES | QQYHRLPLS |
| 4.2 nM | 6 of 6 | KSSQSVPYESRNANSVA | EASTRES | QQYHRLPLS |
| 17 nM | 6 of 6 | KISQSILFMSGKNNAIA | QMEMREE | QQYDRLPLS |
| 310 pM | 6 of 6 | KLSQSMLYESRNKNNVA | NASQRES | QQYHRLPLS |
| 25 nM | 6 of 6 | MIAAGLRGVGRNKNSVA | NAQTREA | QHYHRLPLS |
| not detected | 0 of 6 | IVSQLMMWGLHAKNSIA | EAEMRTN | QQYDRLPLF |
| 520 pM | 6 of 6 | KLSMQDEYQSRNKNQVA | NASTRYS | QQYHRLPLS |
| 37 nM | 3 of 6 | QSGQSVLGESRNKNSVA | WASTRES | QQYHRLPLS |
| 520 pM | 6 of 6 | KLQQSVMYESRNKNSVA | NASTRES | QQYHRLPLS |
| 1.5 nM | 6 of 6 | KLSQSVIYESRNKNSVA | WASTRES | QQYHRLPLS |
| 1.5 nM | 6 of 6 | KFQQSVGYQTRNKNSVA | DASTRES | QQYHRLPLS |
| 3.3 nM | 6 of 6 | KQSQSVPYESRNKNSVA | MASTRES | QQYHRLPLS |
| 1.3 nM | 6 of 6 | HVHMEFAEEKNIKYNIA | DASMRLA | QQYVRLPLG |
| 110 nM | 5 of 6 | KSSQSVLYENRNTNSVA | WASTRES | QQYHRLPLS |
| 1.6 nM | 6 of 6 | KFSQGFLYEERQKNSVA | HASQRES | QQYHRLPLS |
| 10 nM | 6 of 6 | KLEQSWPYESRNKNSVA | NASTRES | QQYHRLPLS |
| 4.3 nM | 6 of 6 | KFSQMFNSFSVSMNAVA | EMSTREE | QQYNRLPLA |
| not detected | 0 of 6 | KSSQSVLYESRNTNSVA | WASIREF | QQYHRLPLS |
| not detected | 0 of 6 | KSSQSVLYESRNKNSVA | NASTREI | QQYHRLPLH |
| 2.0 nM | 6 of 6 | KLSQSELYESRNKNSVA | EASTREM | QQYHRLPLS |
| 1.6 nM | 6 of 6 | KSAQGVLYESRNKNHVA | GASTRES | QQYHRLPLS |
| not detected | 0 of 6 | KSSQSVLMQSRNKNSVA | DASTRES | QQYHRLPLS |
| 15 nM | 6 of 6 | KMSQAWWYESRMKWSVA | NASLREQ | QQYHRLPLS |